Results reported in patent US10118901B2 (priority 2013, dated 2018).

Molecular target: HDAC enzymes (Hela Nuclear Extract)
Type: biochemical

## CC(/C=C/C(=O)NO)=C\[C@@H](C)C(=O)c1ccc(N(C)C)cc1 [Trichostatin A]
  IC50: 2.1 nM
